Assay results as given in patent US8592455B2 (priority 2008, dated 2013).

Amino acid sequences for entries named in this document (tags omitted).
UniProt P11309, whole entry: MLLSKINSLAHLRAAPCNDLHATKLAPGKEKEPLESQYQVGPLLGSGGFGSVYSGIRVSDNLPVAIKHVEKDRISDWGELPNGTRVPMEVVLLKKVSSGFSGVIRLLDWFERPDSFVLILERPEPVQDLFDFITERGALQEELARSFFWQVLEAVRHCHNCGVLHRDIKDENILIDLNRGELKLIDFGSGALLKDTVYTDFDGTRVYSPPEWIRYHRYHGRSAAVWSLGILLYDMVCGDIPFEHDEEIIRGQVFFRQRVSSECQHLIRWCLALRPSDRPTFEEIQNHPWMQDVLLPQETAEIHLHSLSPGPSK

Assays:
Pim1 kinase = Pim1 kinase (Homo sapiens (Human), UniProt P11309); assay: biochemical
Pim3 kinase [1] = target: T1, Pim3 kinase (Homo sapiens (Human), UniProt Q86V86); assay: biochemical
Pim3 kinase [2] = target: T1, Pim3 kinase; details: read-out: Pim3 IC50

| Compound | IC50 (Pim1 kinase) [nM] | IC50 (Pim3 kinase [1]) [nM] | IC50 (Pim3 kinase [2]) [nM] |
| --- | --- | --- | --- |
| Cc1ccc(F)c(-c2cccc(C(=O)Nc3cnccc3[C@@H]3C[C@H](C)C[C@H](N)C3)n2)c1F [Example 29, N-(4-((1R,3S,5S)-3-amino-5-methylcyclohexyl)pyridin-3-yl)-6-(2,6-difluoro-3-methylphenyl)picolinamide] | 1 | 3 | – |
| C[C@@H]1C[C@H](N)C[C@H](c2ccncc2NC(=O)c2ccc(F)c([C@H]3CC[C@H](O)CC3)n2)C1 [Example 55, N-(4-((1R,3S,5S)-3-amino-5-methylcyclohexyl)pyridin-3-yl)-5-fluoro-6-((1r,4r)-4-hydroxycyclohexyl)picolinamide] | – | – | 30 |
| Nc1cc(F)c(-c2c(F)cccc2F)nc1C(=O)Nc1cnccc1[C@@H]1CC[C@H](O)[C@H](N)C1 [Example 65, 3-amino-N-(4-((1R,3R,4S)-3-amino-4-hydroxycyclohexyl)pyridin-3-yl)-6-(2,6-difluorophenyl)-5-fluoropicolinamide] | – | – | 3 |
| Nc1ccc(C2CCCCC2)nc1C(=O)Nc1cnccc1[C@@H]1CCC[C@H](N)C1 [Example 106, 3-amino-N-(4-((1R,3S)-3-aminocyclohexyl)pyridin-3-yl)-6-cyclohexylpicolinamide] | – | – | 14 |

Read-outs that look alike come from different tables or passages of the source.
